The assay addresses ERbeta receptor (Homo sapiens, UniProt Q92731). Conditions: read-out: Ki (ERβ); IC50 converted to Ki using Cheng-Prusoff equation.

By UniProt entry, the sequences of proteins in these tests, tags left out.
UniProt Q92731, whole entry: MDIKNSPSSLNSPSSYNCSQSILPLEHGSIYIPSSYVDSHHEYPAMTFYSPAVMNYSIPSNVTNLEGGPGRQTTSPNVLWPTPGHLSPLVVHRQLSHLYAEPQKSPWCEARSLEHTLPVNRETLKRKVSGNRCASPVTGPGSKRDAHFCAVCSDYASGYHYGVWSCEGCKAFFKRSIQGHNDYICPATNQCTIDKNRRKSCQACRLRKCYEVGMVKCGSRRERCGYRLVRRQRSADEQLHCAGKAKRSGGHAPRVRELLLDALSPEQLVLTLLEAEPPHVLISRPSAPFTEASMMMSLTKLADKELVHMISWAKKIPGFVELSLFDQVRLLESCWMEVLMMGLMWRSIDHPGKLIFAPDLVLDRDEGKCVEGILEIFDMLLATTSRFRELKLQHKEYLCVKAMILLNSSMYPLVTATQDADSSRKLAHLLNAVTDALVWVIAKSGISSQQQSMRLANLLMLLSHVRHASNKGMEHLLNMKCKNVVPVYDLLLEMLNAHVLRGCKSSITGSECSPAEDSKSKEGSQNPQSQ

Structures are written as SMILES.

The term Ki denotes a dissociation constant, usually derived from enzyme kinetics or from competition with a known ligand. In the case of `Oc1ccc(C2CCc3cc(O)ccc3N2c2ccc(OCCN3CCCCC3)cc2)cc1` (stereo not shown) [Example 3], the inhibition constant Ki was determined as 8.03 nM.

The values are drawn from patent US6962928B2, “Tetrahydroquinoline derivatives for the inhibition of osteoporosis, estrogen dependent breast cancer, endometriosis and uterine fibrosis” (Eli Lilly and Company, priority 2001, dated 2005).
